# Laboratory results published in PubChem BioAssay AID1483 (NMMLSC, 2009).
# The list shows a part of the results, in another mix than the full data. Some tests of the compounds listed are not included; inactive here does not mean inactive elsewhere. Activity calls are given as the source filed them.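 How the source made its calls: active means fluorescence beyond the plate control mean plus 3 SD, with a fluorescence-to-maximum score over 2 (cut at about 25 in these data); inactive means the rest.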
# Test: compound autofluorescence in ABCB1-expressing CCRF-Adr cells, confirmation, artefact control for ABC transporter inhibitor project, cell-based, 488/530 nm, flow cytometry (AID 1483)
# Details: compound autofluorescence 488/530 nm, at 6.6 µM, hits give high values
# In short: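 material = unlabeled drug-resistant CCRF-Adr cells | input = 3 million cells per mL, final in well | probe or stimulus = JC-1 substrate omitted | schedule = 10 min rotation at 25 °C | signal = flow cytometric MFI, 530 ± 20 nm | control set = DMSO-treated cell wells as background reference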
smiles,measurement,value
CN(C)c1cccc(C(=O)NCC2(N(C)C)CCCCC2)c1,fluorescence,inactive: -2.04
